Laboratory results published in patent publication US20130060020A1, “Compounds useful for treating neurodegenerative disorders” (Satori Pharmaceuticals, Inc., priority 2011, published 2013).
pIC50: −log10 of the molar value. Read-outs that look alike come from different tables or passages of the source.

Tests used:
Aβ-42 = Aβ-42 MSD 3-plex ELISA, conditioned media of 2B7 cells; type: cell-based; details: Homo sapiens, 5 h
Method: (§1) Assays were conducted to determine the ability of a Compound of Formula I to modulate […], and Aβ-38.
(§2) Plates with capture antibodies were blocked for 1-2 hours at room temperature with 150 μL of the manufactures blocking reagent.
(§3) Cultured 2B7 cells in 96 well plate with 250 μL of media per well until confluent;
(§4) Prepared serial dilutions of compounds in DMSO at 100× the final desired concentration;
(§5) Washed wells with 2B7 cells 1× with 250 μL of media;
(§6) Diluted DMSO stocks 1:100 into media: • Added 250 μL of media containing compounds (1% DMSO) to wells with 2B7 cells for 5 hours at 37° C.
(§7) ELISA Sample Prep: • Diluted conditioned media: 1 part media with 1% DMSO and 1 part blocking buffer; • 150 μL of the 250 μL of conditioned media were used.
(§8) Prepared per manufacturer's protocol (see above). • Seven point standard curve samples were prepared that contained Aβ-42, Aβ-40, and Aβ-38. The highest concentration of Aβ-42 and Aβ-38 was 3,000 pg/mL and the highest concentration of Aβ-40 was 10,000 pg/mL. Subsequent serial dilutions were 1:3 and the final composition of each sample was 1 part blocking buffer and 1 part cell medium containing 1% DMSO.
(§9) Overnight Sample Incubation: • Blocked plates are washed 5× with MSD wash buffer with a plate washer; • […] and blocker G reagent in MSD blocking solution was added; • 25 μL of samples (1 part conditioned media containing 1% DMSO and 1 part MSD blocking buffer) were then added; • Plates were incubated overnight at 4 degrees C. or 2 hours at room temperature.
(§10) Final Wash and Readout: • Washed wells 5× with MSD wash buffer; • Added 150 μL 2×MSD read buffer; • Read with MSD imager.
(§11) Aβ peptide levels for each peptide were calculated from the standard curve using the MSD software provided with the MSD 2400 Imager. Percent vehicle values for each compound dosage were then calculated and fit to a 4 parameter curve generating IC50 values.
(§12) Conditioned media from 2B7 cells (Mayo) was collected after 5 hours of treatment and diluted with 1 volume of Meso Scale Discovery (MSD, Gaithersburg Md.) blocking buffer (1% BSA in MSD wash buffer). For total Aβ measurements, standard-bind, multi-array single spot 96 well MSD ELISA plates were coated with unlabeled 4G8 capture antibody (Covance, Princeton, N.J.) overnight at 4° C. and then blocked with 5% BSA in MSD wash buffer for 1 hour at room temperature with orbital shaking Diluted 2B7 conditioned media were added to the blocked in-house total Aβ MSD plates with SULFO-TAG 6E10 antibody (MSD). For Aβ38, 40 and 42 measurements, diluted 2B7 conditioned media were added to blocked human (6E10) Aβ 3-Plex plates (MSD). Total Aβ and Aβ 3-Plex plates were incubated for 2 hours at room temperature with orbital shaking followed by washing and reading according to the manufacturer's instructions (SECTOR® Imager 2400, MSD). Aβ concentrations were converted to percent vehicle values and used to construct dose response curves which were fitted to […] using GraphPad Prism version 5.00 for Windows, GraphPad Software, San Diego Calif. USA.

Notch processing (NICD) = assay: Notch assay: NICD appearance in SUP-T1 cells (western blot); type: cell-based; details: Homo sapiens, SUP-T1, 18 h, read-out: Notch IC50
Method: The methods for this assay are broken up into two parts. 1) Growing, dosing and lysing cells 2) Measuring Notch processing (NICD appearance) and data manipulation. Cell viability is also described (CTG). SUP-T1 cells were cultured in T75 flasks in RPMI media (Mediatech 10-041-CV) supplemented with 10% FBS and penicillin/streptomycin at 37° C. in a 5% CO2 atmosphere. One hour prior to drug treatment six well plates were seeded with 1.5 mL of media with cells at a density of 1.0×10^6 cells/mL. The DMSO serial dilutions were diluted 100 fold directly into the media with the cells and incubated for 18 hours at 37° C. After treatment 100 μL of treated cells were assayed for viability with the Promega Cell Titer Glo assay system. The remaining cells were washed 2× in PBS and then lysed with 1× promega reporter lysis buffer (E397A) containing a complete protease inhibitor cocktail (Roche 04 693 116 011) for 1 hour at 4° C. Lysates were spun at 5,000 RPM for 5 minutes and supernatants were collected and analyzed for NICD levels. Total protein levels of the cell lysates were measured and adjusted to 0.5 ug/uL using Thermo Scientific's BCA assay (23221/23224) with a BSA standard curve. Lysates were then diluted with one part of gel loading buffer (BioRad 161-0739) with BME (BioRad 161-0739) and separated on 4-20% poly-acrylamide tris/glycine gels (BioRad 345-0065) for 1 hour at 200V. The gels were then equilibrated in transfer buffer (20% Methanol in Tris-glycine buffer, BioRad 161-0734) and transferred to 0.45 micron nitrocellulose (Whatman 10 401196) for 45 minutes at 100V in a tank transfer system. […] The membranes were then washed and probed with a HRP tagged anti rabbit secondary (1:20,000 dilution, Rockland 811-1322) in 5% milk in TBS-T for an hour at room temperature. […] To account for loading discrepancies each NICD band was normalized to the alpha tubulin band in that well. These values were then normalized to vehicle levels and used to plot a dose response curve. IC50 values were obtained from the dose response curves using a four parameter fit method available within Prism's GraphPad graphing suite. Luminescent data from Promega's Cell Titre Glo assay system were normalized to vehicle controls and plotted with NICD levels.

Aβ-40 = Aβ-40 MSD 3-plex ELISA, conditioned media of 2B7 cells; type: cell-based; details: Homo sapiens, 5 h
Method: as §1, §2, §3, §4, §5, §6, §7, §8, §9, §10, §11, §12

Aβ-38 = Aβ-38 MSD 3-plex ELISA, conditioned media of 2B7 cells; type: cell-based; details: Homo sapiens, 5 h
Method: as §1, §2, §3, §4, §5, §6, §7, §8, §9, §10, §11, §12

Aβ 42 = assay: % 42 lowering and 40/42 selectivity after dosing in mg/kg (Table 5); type: in vivo; details: 100 mg/kg
[1] = read-out: Aβ 42 DR IC50 Inflection
[2] = read-out: Aβ 40 DR IC50 Inflection
[3] = read-out: Aβ 38 DR IC50 Inflection

Structure (SMILES)	pIC50 (Aβ-42; [1])	pIC50 (Aβ-42; read-out: Aβ 42 IC50)	pIC50 (Notch processing (NICD))	pIC50 (Aβ-40; [2])	pIC50 (Aβ-40; read-out: Aβ 40 IC50)	pIC50 (Aβ-38; read-out: Aβ 38 IC50)	pIC50 (Aβ-38; [3])	40/42 selective 10 hr (Aβ 42)
CCO[C@@H]([C@H]1C[C@@H](C)[C@H]2[C@H](O1)[C@H](O)[C@@]1(C)[C@@H]3CC[C@H]4C(C)(C)[C@@H](O[C@H]5CN(C6CN(C)C6)CCO5)CC[C@@]45C[C@@]35CC[C@]21C)C(C)(C)O [Compound I-3]	6.30 to 7.00	> 7.00	< 5.30	5.30 to 6.00	5.30 to 6.00	6.30 to 7.00	–	–
CCO[C@@H]([C@H]1C[C@@H](C)[C@H]2[C@H](O1)[C@H](O)[C@@]1(C)[C@@H]3CC[C@H]4C(C)(C)[C@@H](O[C@H]5CN(C6CN(C(C)C)C6)CCO5)CC[C@@]45C[C@@]35CC[C@]21C)C(C)(C)O [Compound I-6]	> 7.00	6.30 to 7.00	< 5.30	5.30 to 6.00	5.30 to 6.00	6.30 to 7.00	–	–
[2H]C1(N2CCO[C@@H](O[C@H]3CC[C@]45C[C@]46CC[C@]4(C)[C@@H]7[C@H](O[C@@H]([C@H](OCC)C(C)(C)O)C[C@H]7C)[C@H](O)[C@@]4(C)[C@@H]6CC[C@H]5C3(C)C)C2)CN(C)C1 [Compound I-10]	> 7.00	6.30 to 7.00	–	5.30 to 6.00	5.30 to 6.00	6.00 to 6.30	–	–
CCO[C@@H]([C@H]1C[C@@H](C)[C@H]2[C@H](O1)[C@H](O)[C@@]1(C)[C@@H]3CC[C@H]4C(C)(C)[C@@H](O[C@H]5CN(C6CN(C7COC7)C6)CCO5)CC[C@@]45C[C@@]35CC[C@]21C)C(C)(C)O [Compound I-11]	> 7.00	6.30 to 7.00	–	–	–	6.30 to 7.00	–	–
CCO[C@@H]([C@H]1C[C@@H](C)[C@H]2[C@H](O1)[C@H](O)[C@@]1(C)[C@@H]3CC[C@H]4C(C)(C)[C@@H](O[C@H]5CN(C6CN(C7CCC7)C6)CCO5)CC[C@@]45C[C@@]35CC[C@]21C)C(C)(C)O [Compound I-13]	6.30 to 7.00	6.30 to 7.00	< 5.30	–	5.30 to 6.00	6.30 to 7.00	–	–
CCO[C@@H]([C@H]1C[C@@H](C)[C@H]2[C@H](O1)[C@H](O)[C@@]1(C)[C@@H]3CC[C@H]4C(C)(C)[C@@H](O[C@H]5CN(C6CN(CCOC)C6)CCO5)CC[C@@]45C[C@@]35CC[C@]21C)C(C)(C)O [Compound I-17]	> 7.00	> 7.00	–	5.30 to 6.00	5.30 to 6.00	6.30 to 7.00	–	–
CCO[C@@H]([C@H]1C[C@@H](C)[C@H]2[C@H](O1)[C@H](O)[C@@]1(C)[C@@H]3CC[C@H]4C(C)(C)[C@@H](O[C@H]5CN(CC6CN(C7COC7)C6)CCO5)CC[C@@]45C[C@@]35CC[C@]21C)C(C)(C)O [Compound I-19]	6.30 to 7.00	6.30 to 7.00	–	5.30 to 6.00	5.30 to 6.00	6.00 to 6.30	6.30 to 7.00	–
CCO[C@@H]([C@H]1C[C@@H](C)[C@H]2[C@H](O1)[C@H](O)[C@@]1(C)[C@@H]3CC[C@H]4C(C)(C)[C@@H](O[C@H]5CN(CC6CN(CCOC)C6)CCO5)CC[C@@]45C[C@@]35CC[C@]21C)C(C)(C)O [Compound I-20]	> 7.00	> 7.00	–	5.30 to 6.00	5.30 to 6.00	6.30 to 7.00	> 7.00	G^a (16-20 fold selectivity)
CCO[C@@H]([C@H]1C[C@@H](C)[C@H]2[C@H](O1)[C@H](O)[C@@]1(C)[C@@H]3CC[C@H]4C(C)(C)[C@@H](O[C@H]5CN(CC6CN(C(C)C)C6)CCO5)CC[C@@]45C[C@@]35CC[C@]21C)C(C)(C)O [Compound I-22]	6.30 to 7.00	6.30 to 7.00	–	–	5.30 to 6.00	6.30 to 7.00	–	–
CCO[C@@H]([C@H]1C[C@@H](C)[C@H]2[C@H](O1)[C@H](O)[C@@]1(C)[C@@H]3CC[C@H]4C(C)(C)[C@@H](O[C@H]5CN(CC6CN(CC(C)(C)O)C6)CCO5)CC[C@@]45C[C@@]35CC[C@]21C)C(C)(C)O [Compound I-24]	6.30 to 7.00	6.30 to 7.00	< 5.30	–	6.00 to 6.30	6.30 to 7.00	–	–
CCO[C@@H]([C@H]1C[C@@H](C)[C@H]2[C@H](O1)[C@H](O)[C@@]1(C)[C@@H]3CC[C@H]4C(C)(C)[C@@H](O[C@H]5CN(C6CN(CC(C)(C)O)C6)CCO5)CC[C@@]45C[C@@]35CC[C@]21C)C(C)(C)O [Compound I-25]	> 7.00	6.30 to 7.00	–	5.30 to 6.00	5.30 to 6.00	6.00 to 6.30	–	–
CCO[C@@H]([C@H]1C[C@@H](C)[C@H]2[C@H](O1)[C@H](O)[C@@]1(C)[C@@H]3CC[C@H]4C(C)(C)[C@@H](O[C@H]5CN(CC6CN(CCO)C6)CCO5)CC[C@@]45C[C@@]35CC[C@]21C)C(C)(C)O [Compound I-38]	6.30 to 7.00	6.30 to 7.00	–	–	5.30 to 6.00	6.30 to 7.00	–	–
CCO[C@@H]([C@H]1C[C@@H](C)[C@H]2[C@H](O1)[C@H](O)[C@@]1(C)[C@@H]3CC[C@H]4C(C)(C)[C@@H](O[C@H]5CN(C6CN(CCO)C6)CCO5)CC[C@@]45C[C@@]35CC[C@]21C)C(C)(C)O [Compound I-40]	> 7.00	> 7.00	–	–	5.30 to 6.00	6.30 to 7.00	–	–
